Results taken from patent US8518466B2 (Shenzhen Hazardous Waste Treatment Station Ltd., priority 2008, dated 2013).

System: weaned piglet
Conditions: in vivo

selenium covered basic copper chloride
copper content in liver among groups: almost the same
selenium content in liver, higher than the groups added with 0.3 mg/kg of sodium selenite (0.3 mg/kg): 9%
